In general, IC50 refers to the concentration at which inhibition is half-maximal. A higher IC50 goes with weaker potency in that assay.

This assay is described as follows: cells. The note with it: Homo sapiens, NCI/ADR-RES, 48 h.

`CC(=O)O[C@H]1C(=O)[C@@]2(C)[C@H]([C@H](OC(=O)c3ccccc3)[C@]3(O)C[C@H](OC(=O)[C@H](O)[C@@H](NC(=O)c4ccccc4)c4ccccc4)C(C)=C1C3(C)C)[C@]1(OC(C)=O)CO[C@@H]1C[C@@H]2O` [PACLITAXEL] yielded an IC50 of 6 µM.

(Values after ChEMBL document CHEMBL3596144, “New Indole Tubulin Assembly Inhibitors Cause Stable Arrest of Mitotic Progression, Enhanced Stimulation of Natural Killer Cell Cytotoxic Activity, and Repression of Hedgehog-Dependent Cancer” (J Med Chem, 2015).)
